Laboratory results reported in patent US20040014790A1, “Tartrate salt of thiazolidinedione derivative” (priority 2000, published 2004).

Details: water; product of Example 1

- Solubility: 1 mg/mL
SMILES: CN(CCOc1ccc(CC2SC(=O)NC2=O)cc1)c1ccccn1.O=C(O)C(O)C(O)C(=O)O (racemic) [DL-Tartrate, 5-[4-[2-(N-methyl-N-(2-pyridyl)amino)ethoxy]benzyl]thiazolidine-2,4-dione DL tartrate]
